Assay: Formation of wortmannin from WmC20 conjugates monitored by HPLC
Details: for Wortmannin release / formation seen by HPLC (words): PBS pH 6.8, 37° C.; for Wm Generation By HPLC (3 hr, 37° C.): percentage of wortmannin released after three hours in PBS
Experimental: The solutions were incubated in water bath at 37° C. and were analyzed at different time points with HPLC by injecting the solution (10 μL) together with 1 μL internal standard solution (containing 1 μg methyl 4-hydroxybezoate). The initial time point (0 hr) was taken before putting the tube in the water bath. HPLC gradients were adjusted to produce baseline separations. Before the injection, the samples were vortexed briefly and then spun down. Data using this method appear in FIG. 6.
Compounds (1.8 mg) and 4b (1.3 mg) (examples were weighted into the 1.5 mL tubes and dissolved in PBS buffer (pH 6.8, 400 μL). The solutions were incubated at 37° C. At different time point 20 μL solution was mixed with 1 μL internal standard solution in DMSO (containing 1 μg methyl 4-hydroxybenzoate) and analyzed by HPLC. The initial time point (0 hr) was taken before putting the tube in the water bath. Before the injection, the samples were vortexed briefly and then spun down.
The following HPLC methods were employed. HPLC (Varian Prostar 210 with a variable wavelength PDA 330 detector) employed reverse phase C18 columns (VYDAC, Cat.#: 218TP 1022 for synthesis; Varian, Cat. #: R0086200C5 for analysis) with water (Millipore, containing 0.1% trifloroacetic acid,) (buffer A) and acetonitrile (containing 20% buffer A) (buffer B) as elution buffer. System 1: buffer A/buffer B (80:20) isocratic for 5 minutes, linear gradient to buffer A/buffer B (20:80) over 40 minutes, then the gradient back to 80:20 in 5 minutes and isocratic for 5 minutes, flow: 4.9 ml/min, λmax: 418 nm (used for purification of 2a); System 2: buffer A/buffer B (80:20) isocratic for 5 minutes, linear gradient to buffer A (buffer B (20:80) over 25 minutes and then isocratic for 5 minutes, then the gradient back to 80:20 in 5 minutes and isocratic for 5 minutes, flow: 6.0 mi/min, λmax: 408 nm (used for purification of 2b); System 3: buffer A/buffer B (70:30) linear gradient to buffer A/buffer B (20:80) over 15 minutes, then gradient back to 70:30 in 3 minutes and isocratic for another 5 minutes, flow: 1.0 ml/min, λmax: 258 nm (System 4: buffer A/buffer B (99:1) linear gradient to buffer A/buffer B (40:60) over 46 minutes, then gradient back to […] in 5 minutes and isocratic for another 5 minutes, flow: 1.0 ml/min, λmax: 250 nm).

Substance	Wortmannin release / formation seen by HPLC (words)	Wm Generation By HPLC (3 hr, 37° C.)	Wortmannin release / formation seen by HPLC (words) (listed as example 13)
WmC20-NH-hexanoate-IgG [Example 15]	could not be detected		
WmC20-N(Me)-hexanoate-IgG [Example 14]	evident	3.5%	
Wm-N(Me)Hexanoate-BSA conjugate [Example 12]	evident	16.5%	
WmC20-N(H)-hexanoate-dextran [Example 18]	could not be detected		
WmC2O-N(Me)-hexanoate-Bead [Example 16]	evident		
WmC20-NH-hexanoate-BSA conjugate [Example 13]	could not be detected		Slow or undetectable

From patent US20090324489A1 (priority 2005, published 2009)
